{"source": "patent US20240398973A1", "about": "“ENGINEERED ANTIBODY COMPOUNDS AND CONJUGATES THEREOF” (Eli Lilly and Company, priority 2017, published 2024)", "key": {"[1]": {"test_system": "human primary PMNs", "assay": "PMN reactive oxygen species (ROS) production, luminol-amplified chemiluminescence", "assay_type": "cell-based", "conditions": "for PMN ROS production: relative to 1000 nM fMLF", "method": "(§1) Production of ROS by human primary PMNs is measured using luminol-amplified chemiluminescence. Following isolation, PMNs are suspended at 1×10^6 cells/ml in HBSS containing calcium and magnesium (Gibco #14025-092) supplemented with 0.25% human serum albumin (Gemini Bio producst #800-124) and 50 uM Luminol (SigmaAldrich #123072-2.5G). 100 μl of cell suspension (1×10^5 total cells) is then distributed into each well of a 96-well plate suitable for fluorescence measurement (Greiner #655098) and temperature equilibrated to 37° C. for 5 minutes. Following equilibration, 10× solution of antibody conjugate is applied to the wells, achieving a 1× final concentration.\n(§2) Immediately after the addition of antibody conjugate, chemiluminescence signal is recorded in a luminometer maintained at 37° C. with 0.01 seconds dwell time per well, 20 seconds total time between sequential plate readings and 45 minutes total run time (PerkinElmer EnVision Multilabel Plate Reader)."}, "[2]": {"test_system": "Mouse neutrophils purified from marrow", "assay": "Mouse PMN ROS production", "assay_type": "cell-based", "conditions": "relative to 10000 nM fMLF, AUC 5 minutes (Table 8c)", "method": "as §1, §2\nMouse neutrophils purified from marrow were exposed to formyl peptides or antibody conjugates and ROS production was measured using luminol amplified chemiluminescence essentially as described above."}}}
{"substance": "TMab-G1-UC-HC-124C-378C: unconjugated trastuzumab-variable-region IgG1 with HC 124C and 378C; HC SEQ ID NO:6, LC SEQ ID NO:7", "values": [{"measurement": "PMN ROS production", "setting": "[1]; 1 nM, AUC 5 minutes (Tables 9, 11)", "result": 10.4, "unit": "percentage"}, {"measurement": "PMN ROS production", "setting": "[1]; 3 nM, AUC 5 minutes (Tables 9, 11)", "result": 10.5, "unit": "percentage"}, {"measurement": "PMN ROS production", "setting": "[1]; 10 nM, AUC 5 minutes (Tables 9, 11)", "result": 10.8, "unit": "percentage"}, {"measurement": "PMN ROS production", "setting": "[1]; 30 nM, AUC 5 minutes (Tables 9, 11)", "result": 10.6, "unit": "percentage"}, {"measurement": "PMN ROS production", "setting": "[1]; 100 nM, AUC 5 minutes (Tables 9, 11)", "result": 10.5, "unit": "percentage"}, {"measurement": "PMN ROS production, Exposure: Buffer", "setting": "[1]; 300 nM, Buffer, relative to fMLF, AUC 5 minutes (Table 12a)", "result": 18.1, "unit": "percentage"}, {"measurement": "PMN ROS production, Exposure: Cyclosporin H", "setting": "[1]; 300 nM, PMNs pre-incubated with 1 uM Cyclosporin H for 30 minutes, relative to fMLF (Table 12a)", "result": 18.2, "unit": "percentage"}, {"measurement": "PMN ROS production", "setting": "[1]; 300 nM, AUC 5 minutes (Tables 9, 11)", "result": 10.6, "unit": "percentage"}, {"measurement": "PMN ROS production", "setting": "[1]; 1000 nM, AUC 5 minutes (Tables 9, 11)", "result": 12.8, "unit": "percentage"}, {"measurement": "Mouse PMN ROS Production", "setting": "[2]; 1 nM", "result": 15.8, "unit": "percentage"}, {"measurement": "Mouse PMN ROS Production", "setting": "[2]; 3 nM", "result": 15.8, "unit": "percentage"}, {"measurement": "Mouse PMN ROS Production", "setting": "[2]; 10 nM", "result": 14.7, "unit": "percentage"}, {"measurement": "Mouse PMN ROS Production", "setting": "[2]; 30 nM", "result": 16.3, "unit": "percentage"}, {"measurement": "Mouse PMN ROS Production", "setting": "[2]; 100 nM", "result": 16.4, "unit": "percentage"}, {"measurement": "Mouse PMN ROS Production", "setting": "[2]; 300 nM", "result": 18.4, "unit": "percentage"}, {"measurement": "Mouse PMN ROS Production", "setting": "[2]; 1000 nM", "result": 13.9, "unit": "percentage"}]}
{"substance": "TMab: TMab (trastuzumab), parental anti-HER2 IgG1 antibody [reference compound]", "values": [{"measurement": "PMN ROS production", "setting": "[1]; 1 nM, AUC 5 minutes (Table 12b)", "result": 13.6, "unit": "percentage"}, {"measurement": "PMN ROS production", "setting": "[1]; 3 nM, AUC 5 minutes (Table 12b)", "result": 14.6, "unit": "percentage"}, {"measurement": "PMN ROS production", "setting": "[1]; 10 nM, AUC 5 minutes (Table 12b)", "result": 13.3, "unit": "percentage"}, {"measurement": "PMN ROS production", "setting": "[1]; 30 nM, AUC 5 minutes (Table 12b)", "result": 13.9, "unit": "percentage"}, {"measurement": "PMN ROS production", "setting": "[1]; 100 nM, AUC 5 minutes (Table 12b)", "result": 18.7, "unit": "percentage"}, {"measurement": "PMN ROS production", "setting": "[1]; 300 nM, AUC 5 minutes (Table 12b)", "result": 12.1, "unit": "percentage"}, {"measurement": "PMN ROS production", "setting": "[1]; 1000 nM, AUC 5 minutes (Table 12b)", "result": 11.3, "unit": "percentage"}]}
